Source: PubChem (Broad Institute)
ERp5 inh: blocks human ERp5 reductase activity on insulin | Q15084 | inhibition, % at 9.99 µM | AID 651711 | 0.05% of 350,000 active | ERp5 insulin aggregation, absorbance 650 nm, 90 min;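 active = mean replicate inhibition above about 25%, with every replicate also reaching it, limit read from the data, passing the limit was not always enough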
UUG fidelity: alters start codon recognition fidelity in yeast | S. cerevisiae UUG-firefly luciferase reporter, luminescence/redox ratio | activity score, % at 18.7 µM | hit rate 0.13% among 350,000 | AID 602363;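 active means replicate mean at a twofold rise or more, about +100% in these data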;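 further: firefly luciferase made from a UUG start codon reports start codon fidelity; reporter light over untreated wells divided by growth signal over untreated wells; some hits fall short of that in this replicate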
PglD inh: inhibitors of Campylobacter jejuni PglD acetyltransferase. purified PglD enzyme, DTNB colorimetric CoA detection. inhibition, % at 12.5 µM. 0.098% of 360,000 active. AID 602405; in the data active = inhibition above about 16%, passing the limit was not always enough
PDI inh: PDI (human) enzyme inhibition; PDI insulin aggregation turbidity, A650, 90 min; AID 588391; 0.052% of 350,000 active; inhibition, % at 10 µM; P07237;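 active = mean inhibition across replicates of 30% or more, whatever share of single replicates reach that level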
FGF22 binding: shifts melting point of recombinant human FGF22; Q9HCT0; recombinant FGF22 thermal shift, SYPRO orange fluorescence; percent of sucrose octasulfate shift, DMSO zero; activity (Tm shift, normalised), % at 9.99 µM; 1.5% of 340,000 active; AID 651658;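 active = mean Tm shift, scaled 0 neutral to 100 positive control, at about 1.3% or above, every replicate too, limit read from the data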
ARNT TACC3 PPI: ARNT/TACC3 interaction disruption; AID 623870; 0.66% of 390,000 active; inhibition, % at 9.99 µM; AlphaScreen His-ARNT PAS-B/GST-TACC3 binding, luminescence; TACC3 fragment carries E629A point mutation;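 active = mean inhibition of replicates at least 50% and at least half of replicates each reaching 50%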;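 also: 0% = complete ARNT plus TACC3 wells and 100% = ARNT alone without TACC3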
Numbers without * were called inactive; x = not tested or not shown. Shown are actives, neighbours in structure and some others; about 1.9% of the full set was active somewhere.

Results follow in this order: ERp5 inh, UUG fidelity, PglD inh, PDI inh, FGF22 binding, ARNT TACC3 PPI
#1 O=C(NCCCn1ccnc1)/C(=C/c1ccco1)NC(=O)c1ccccc1
    x, 3.7, 3.1, 3.0, x, 7.0
#2 Cc1ccc(C(=O)N/C(=C\c2ccco2)C(=O)NCCCn2ccnc2)cc1
    x, 0.0, -3.5, 4.3, x, 97.7*
#3 CN(C)c1ccc(/C=C(\NC(=O)c2ccccc2)C(=O)NCCCn2ccnc2)cc1
    0.1, -22.0, 6.2, -3.0, -0.3, 53.8*
#4 O=C(NCCCn1ccnc1)/C(=C/c1ccccc1)NC(=O)c1ccccc1
    1.5, x, x, 1.7, 0.4, 14.8
#5 Cc1ccc(C(=O)N/C(=C/c2ccco2)C(=O)NCCCn2ccnc2)cc1
    x, -11.5, -2.2, -7.9, x, 49.2*
#6 COc1ccc(/C=C(\NC(=O)c2ccc(C)cc2)C(=O)NCCCn2ccnc2)cc1OC
    -6.7, -12.4, -4.4, -1.9, -0.1, 54.2*
#7 CC(C)c1cn(CC[C@@H]2CC[C@@H](NS(=O)(=O)Cc3ccccc3)[C@H](CO)O2)nn1
    3.2, -2.2, 0.2, x, 0.2, -42.0
#8 COc1ccc2c3c(n(C)c2c1)[C@@H](CO)NCC31CCN(C(=O)Nc2ccc(F)cc2F)CC1
    2.0, x, x, x, x, x
#9 Cc1cc2nc(C(C)(C)C)cc(N)n2n1
    4.6, -19.8, -1.3, 7.1, 0.1, 1.1
#10 CC(C)(C)c1cc(N)n2nc(C(C)(C)C)cc2n1
    3.0, x, x, -5.8, 43.9*, -6.4
#11 CN1CCCc2cc(C=O)ccc21
    x, -8.9, 3.4, 10.3, x, -1.7
#12 CCCN1CCCc2cc(CN)ccc21
    x, -13.8, -4.5, 3.3, x, 31.9*
#13 COc1cccc(S(=O)(=O)N[C@H]2CC[C@@H](CC(=O)NCc3ccc(Cl)cc3)O[C@H]2CO)c1
    -4.4, 13.1, -2.3, x, -0.1, 35.8*
#14 COC(=O)C[C@H]1CC[C@@H](NS(=O)(=O)c2ccc(OC)cc2)[C@H](CO)O1
    -4.8, -8.4, 2.3, x, 0.6, 48.0*
#15 CC(=O)N[C@H]1CC[C@H](CC(=O)NCc2ccc(Cl)cc2)O[C@H]1CO
    3.3, -19.2, 16.7*, x, 0.3, -9.2
#16 COC(=O)C[C@@H]1CC[C@H](NS(=O)(=O)c2ccc(OC)cc2)[C@@H](CO)O1
    3.6, -7.8, 2.7, x, 0.5, 24.0
#17 C[C@@H]1CCCCO[C@H](CN(C)S(=O)(=O)c2ccccc2)[C@@H](C)CN([C@@H](C)CO)C(=O)c2cc(NC(=O)NC3CCCCC3)ccc2O1
    -0.4, 2.3, -2.9, x, -0.4, 6.6
#18 COc1ccccc1S(=O)(=O)N[C@@H]1CC[C@@H](CCNC(=O)C2CCOCC2)O[C@H]1CO
    -1.3, x, 1.0, x, -0.3, -2.3
#19 CO[C@H]1CN(C)C(=O)c2ccc(NC(C)=O)cc2OC[C@@H](C)NC[C@@H]1C
    -1.6, 0.6, 5.2, x, -0.2, -1.1
#20 CO[C@@H]1CN(C)C(=O)c2cc(NS(=O)(=O)c3cccc(C)c3)ccc2OC[C@@H](C)NC[C@H]1C
    -5.8, 27.7, -45.1, x, -0.1, 12.7*
#21 CO[C@@H]1CN(C)C(=O)c2cc(NS(=O)(=O)c3cccc(C)c3)ccc2OC[C@H](C)NC[C@H]1C
    -13.4, -1.7, -3.2, x, 0.1, 2.2
#22 CO[C@H]1CN(C)C(=O)c2cc(NC(C)=O)ccc2OC[C@@H](C)NC[C@@H]1C
    -0.2, x, 19.2*, x, 0.2, -1.7
#23 N#Cc1cccc(-c2ccc3c(c2)[C@H]2[C@H](CCN2S(=O)(=O)c2ccccc2F)[C@H](CO)N3)c1
    1.8, -18.7, 1.3, x, -0.2, -0.9
#24 C[C@H](CO)N1C[C@H](C)[C@H](CN(C)C(=O)Nc2ccc(F)cc2)OCCCC[C@H](C)Oc2ccc(NC(=O)Nc3ccc(C(F)(F)F)cc3)cc2C1=O
    2.2, -19.2, 2.8, x, 1.3*, x
#25 C[C@@H]1CCCCO[C@H](CN(C)C(=O)Nc2ccc(F)cc2)[C@@H](C)CN([C@H](C)CO)C(=O)c2cc(NC(=O)Nc3ccc(C(F)(F)F)cc3)ccc2O1
    -0.9, 5.0, 3.4, x, 0.5, 1.9
#26 C[C@@H]1CCCCO[C@H](CN(C)C(=O)Nc2ccc(F)cc2)[C@H](C)CN([C@@H](C)CO)C(=O)c2cc(NC(=O)Nc3ccc(C(F)(F)F)cc3)ccc2O1
    0.4, -10.5, -2.3, x, 1.3*, 4.3
#27 O=C1c2ccccc2-c2nnc(-c3ccccc3)cc21
    x, -40.6, 0.9, -2.5, x, 5.6
#28 COc1ccc(-c2cc3c(nn2)-c2ccccc2C3=O)cc1
    -9.1, -61.9, 4.0, 5.0, 42.9*, -4.4
#29 CCC(=O)N1CC2(C1)[C@H](c1ccccc1)[C@H](CO)N2CC1CC1
    2.8, x, x, x, -0.2, x
#30 Cc1noc(C)c1NC(=O)Nc1ccc2c(c1)CC(=O)N([C@@H](C)CO)C[C@@H](C)[C@H](CN(C)C(=O)Nc1ccc(F)cc1)O2
    -3.2, 0.3, -0.5, x, -0.5, 12.2

Three of the entries above in order of the UUG fidelity value, descending:
item | molecule | UUG fidelity
25 | C[C@@H]1CCCCO[C@H](CN(C)C(=O)Nc2ccc(F)cc2)[C@@H](C)CN([C@H](C)CO)C(=O)c2cc(NC(=O)Nc3ccc(C(F)(F)F)cc3)ccc2O1 | 5.0
2 | Cc1ccc(C(=O)N/C(=C\c2ccco2)C(=O)NCCCn2ccnc2)cc1 | 0.0
28 | COc1ccc(-c2cc3c(nn2)-c2ccccc2C3=O)cc1 | -61.9

Limited to FGF22 binding, for five of the compounds above:
#	mol	FGF22 binding
20	CO[C@@H]1CN(C)C(=O)c2cc(NS(=O)(=O)c3cccc(C)c3)ccc2OC[C@@H](C)NC[C@H]1C	-0.1
21	CO[C@@H]1CN(C)C(=O)c2cc(NS(=O)(=O)c3cccc(C)c3)ccc2OC[C@H](C)NC[C@H]1C	0.1
22	CO[C@H]1CN(C)C(=O)c2cc(NC(C)=O)ccc2OC[C@@H](C)NC[C@@H]1C	0.2
23	N#Cc1cccc(-c2ccc3c(c2)[C@H]2[C@H](CCN2S(=O)(=O)c2ccccc2F)[C@H](CO)N3)c1	-0.2
24	C[C@H](CO)N1C[C@H](C)[C@H](CN(C)C(=O)Nc2ccc(F)cc2)OCCCC[C@H](C)Oc2ccc(NC(=O)Nc3ccc(C(F)(F)F)cc3)cc2C1=O	1.3*

Following part.
Results follow in this order: ERp5 inh, UUG fidelity, PglD inh, PDI inh, FGF22 binding, ARNT TACC3 PPI
#31 O=C(CCN1CCCCC1)N[C@@H]1CC[C@@H](CCNC(=O)c2cc(Cl)cc(Cl)c2)O[C@@H]1CO
    9.0, 6.3, 1.8, x, -0.6, 46.6*
#32 CCOC(=O)c1c(/N=C/C2=C(O)CC(C)(C)CC2=O)sc(C(C)=O)c1C
    -1.6, x, x, -2.6, 43.1*, 3.8
#33 COc1ccc(S(=O)(=O)Nc2ccc3c(c2)C(=O)N([C@@H](C)CO)C[C@H](C)[C@@H](CN(C)C(=O)Nc2cccc4ccccc24)O3)cc1
    7.3, 1.6, -4.5, x, -0.3, -2.5
#34 COc1ccc(NC(=O)[C@@H]2[C@@H]3C(=O)N(C4CCCCC4)C(=O)[C@@H]3C3c4ccccc4C=CN32)cc1 (some centres undefined)
    x, 10.7, 2.2, 2.1, x, 11.8*
#35 OC1CCCN(CC(O)c2ccccc2)C1 (centres undefined)
    6.7, -12.2, 2.7, 2.7, 42.9*, 10.1
#36 O=C(Nc1ccccc1F)N[C@@H]1CC[C@@H](CCNS(=O)(=O)c2ccc(Cl)cc2)O[C@@H]1CO
    -1.2, -1.7, 3.1, x, -0.3, 1.0
#37 COc1cccc2c1OCC(C(=O)O)C2 (centres undefined)
    1.3, -1.4, 6.3, 3.2, 42.9*, -0.3
#38 CSc1cc(-c2ccccc2)[nH]c(=O)c1C#N
    6.0, x, x, 0.6, 0.1, x
#39 Cc1cc(-c2ccccc2)[nH]c(=O)c1C#N
    -3.8, x, x, -1.1, 43.1*, 4.9
#40 COCC(=O)N(C)C[C@@H]1Oc2ncc(C#Cc3ccc(OC)cc3)cc2C(=O)N([C@H](C)CO)C[C@H]1C
    0.0, 21.7, 3.3, x, 0.1, -7.3
#41 C[C@@H]1CN([C@H](C)CO)S(=O)(=O)c2ccc(-c3ccccc3)cc2O[C@H]1CN(C)C(=O)Nc1ccccc1F
    2.4, 14.7, -1.6, x, -0.2, -0.5
#42 C[C@@H]1CCCCO[C@H](CN(C)C(=O)Nc2ccc3c(c2)OCO3)[C@@H](C)CN([C@H](C)CO)C(=O)c2cc(NC(=O)c3ccncc3)ccc2O1
    1.9, -4.7, -1.2, x, -0.3, -2.9
#43 CCCCC(CC(O)COCC(C)C)C(=O)NN (centres undefined)
    2.3, x, x, 5.4, 0.6, 0.6
#44 CC(C)COCC(O)CC(Cc1ccccc1)C(=O)NN (centres undefined)
    -3.3, x, x, 0.3, 43.5*, -3.0
